Source: patent publication US6589992B2, “Inhibiting collagen-induced platelet aggregation” (Parker Hughes Institute, priority 1999, dated 2003)

By UniProt entry, the sequences of proteins in these tests, tags left out. Where a name states a change or a piece, a line headed by the entry shows the natural chain unless it says otherwise.
UniProt P24604: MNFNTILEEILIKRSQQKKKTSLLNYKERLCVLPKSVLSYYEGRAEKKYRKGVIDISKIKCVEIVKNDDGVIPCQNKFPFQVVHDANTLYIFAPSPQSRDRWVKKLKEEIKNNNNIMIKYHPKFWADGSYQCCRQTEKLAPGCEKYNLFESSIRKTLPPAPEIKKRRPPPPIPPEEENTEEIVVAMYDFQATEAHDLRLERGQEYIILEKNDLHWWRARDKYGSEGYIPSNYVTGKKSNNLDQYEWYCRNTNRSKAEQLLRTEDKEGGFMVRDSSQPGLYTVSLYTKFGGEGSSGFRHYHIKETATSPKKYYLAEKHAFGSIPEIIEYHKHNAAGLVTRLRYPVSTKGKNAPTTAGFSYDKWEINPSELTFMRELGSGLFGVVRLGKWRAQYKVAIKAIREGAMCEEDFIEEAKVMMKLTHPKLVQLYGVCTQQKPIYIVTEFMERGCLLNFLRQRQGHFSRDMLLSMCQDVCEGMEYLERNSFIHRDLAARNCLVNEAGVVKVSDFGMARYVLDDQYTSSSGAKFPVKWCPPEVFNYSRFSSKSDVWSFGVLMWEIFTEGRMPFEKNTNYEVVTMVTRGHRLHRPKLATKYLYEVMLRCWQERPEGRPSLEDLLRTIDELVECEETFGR

Biological target: recombinant TEC kinase (Mus musculus, UniProt P24604)
Assay: biochemical

How did the IC50 turn out when `C/C(O)=C(\C#N)C(=O)Nc1cc(Br)ccc1Br` [LFM-A13, α-cyano-β-hydroxy-β-methyl-N-(2,5-dibromophenyl)-propenamide] was run?
Its IC50 is 14.7 µM.
